# Antibody variant affinities, Ab-14 heavy chain, assay B

Data: MIT Lincoln Laboratory AlphaSeq set, Li et al. 2023, doi:10.1038/s41467-023-39022-2, as distributed in FLAb.

All variants were tested on one target, the spike HR2 peptide PDVDLGDISGINAS (SARS-CoV-2).

Each scFv is VH, a 15-residue (Gly4Ser)3 linker, VL, as in the parent Ab-14, and differs from it in the CDRs of the heavy chain only.
VH: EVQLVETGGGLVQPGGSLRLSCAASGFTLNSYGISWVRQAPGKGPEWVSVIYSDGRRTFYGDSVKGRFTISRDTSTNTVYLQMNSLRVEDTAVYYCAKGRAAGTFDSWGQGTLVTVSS
VL: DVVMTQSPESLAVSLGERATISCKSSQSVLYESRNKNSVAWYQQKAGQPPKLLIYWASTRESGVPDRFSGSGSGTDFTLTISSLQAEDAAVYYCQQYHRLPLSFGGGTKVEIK

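The starting antibody came from a phage panning campaign against this peptide. Designed CDR sequences, proposed from the first random library and measured here. Their group label is 14H_GP_Gibbs (GP: Gaussian process model; Gibbs: Gibbs sampling; a sequence that several methods proposed may carry one label only). Affinity was read by AlphaSeq, a pooled yeast mating assay with surface-displayed partners. Pairs that bind mate more often; barcode pairs of the diploids are counted by sequencing. Read counts were normalised to the haploid input and turned into Kd by a linear fit to BCL2-family pairs of known affinity, for each replicate. Each pool was mated in six replicate cultures.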

Each variant is given by its three heavy chain CDRs, as the data file delimits them; those of the parent are GFTLNSYGIS, VIYSDGRRTFYGDSVK, GRAAGTFDS. Affinities are written as log10 Kd with Kd in nM; a lower number is a better binder. A pair that was not seen in that replicate is written "nd"; this usually means weak binding, but a binder can also be missed. The range of this assay differs from that of the first round, and the authors advise against merging the two.

The variant HFELNSYGIS, VIYSDGRRTFYADSVK, GKTAGTFDS gave 0.74, 0.87, 1.07, 0.96, 0.90, 1.15 (controls 2 of 18).
The variant KFTLNSYGIS, VIYSDGKRTFYSDSVK, GRQAGTFDS gave nd, 1.62, nd, 0.69, 1.30, 1.89 (controls 0 of 18).
The variant GFNLNSYGIS, VIYSDGRRTFYHDSVK, GQVAGTFDS gave 0.32, 0.33, 0.13, 0.22, 0.21, 0.30 (controls 0 of 18).
The variant GFELNSYGIS, VIYSDGQRTFYVDDVK, GRTAGTFDS gave nd, nd, 1.79, nd, 1.01, 0.99 (controls 0 of 18).
The variant GFDLNSYGIS, VIYSDGRRTFYADRVK, GREAGTFDT gave 0.05, 0.41, 0.09, 0.48, -0.14, -0.07 (controls 1 of 18).
The variant GFSLNSYGIS, VIYSDGRRTFYADHVK, GEAAGTFDK gave 1.03, 0.14, 0.54, 0.34, 0.84, 0.52 (controls 0 of 18).
The variant GFSLNSYGIS, VIYSDGRRTFYGDDVK, GSEAGTFDS gave 0.26, -0.42, -0.27, -0.41, -0.17, -0.27 (controls 0 of 18).
The variant GFELNSYGIS, VIYSDGRRTFYIDSVK, GRMAGTFDT gave 1.30, 0.82, 1.74, 0.79, 0.90, 1.75 (controls 0 of 18).
The variant GFSLNEYGIS, VIYSDGRRTFYADHVK, GNAAGTFDS gave -0.26, 0.12, 0.03, 0.38, -0.17, -0.02 (controls 0 of 18).
The variant YFSLNSYGIS, VIYSDGRRTAYGDSVK, GRTAGTFDS gave 1.50, 1.72, 1.87, 0.68, 2.25, 1.43 (controls 0 of 18).
The variant GFHLNSYGIS, VIYSDGRRTFYCDSVK, GQTAGTFDS gave nd, nd, nd, nd, nd, 3.13 (controls 1 of 18).
The variant GFNLNSYGIS, VIYSDGRRTFYVDSVK, GNQAGTFDS gave 0.46, 0.03, -0.10, 0.06, 0.20, 0.48 (controls 0 of 18).
The variant GFSLESYGIS, VIYSDGRRTFYHDSVK, GRAAGTFDS gave 0.37, nd, -0.03, nd, 0.60, 1.25 (controls 0 of 18).
The variant GFTLDSYGIS, VIYSDGRRTFYADPVK, GRAAGTFDK gave 1.12, 0.89, 0.82, 1.18, 0.78, 1.34 (controls 1 of 18).
The variant GFSLNEYGIS, VIYSDGRRTFYGDSVK, GRQAGTFFS gave nd, 1.23, -0.14, 0.87, -0.07, 1.30 (controls 0 of 18).
The variant GFNLNSYGIS, VIYSDGMRTFYIDSVK, GRQAGTFDS gave 1.90, 1.78, 1.80, 2.32, 2.06, 2.53 (controls 1 of 18).
The variant GFNLNSYGIS, VIYSDGRRTAYGDRVK, GRQAGTFDS gave nd, -0.11, nd, 0.41, nd, 0.81 (controls 0 of 18).
The variant GFTLNSYGIS, VIYSDGKRTFYIDSVK, GQVAGTFDT gave nd, nd, nd, nd, 1.36, 0.61 (controls 0 of 18).
The variant GFSLNSYGIS, VIYSDGRRTAYGDPVK, GRTAGTFDS gave 0.45, 0.01, -0.09, -0.06, 0.13, 0.00 (controls 0 of 18).
The variant GFTLNSYGIS, VIYSDGRRTFYGDDVK, GNTAGTFDT gave nd, -0.22, 1.20, 2.59, 0.05, -0.09 (controls 0 of 18).
The variant GFELNSYGIS, VIYSDGRRTFYQDSVK, GRTAGTFDV gave 1.08, 1.24, 0.16, -0.02, 0.51, 0.27 (controls 0 of 18).
The variant GFQLNSYGIS, VIYSDGRRTFYGDKVK, GRTAGTFDS gave nd, 1.26, nd, nd, nd, 1.50 (controls 0 of 18).
The variant GFTLNSYGIS, VIYSDGKRTFYGDSVK, GLVAGTFDT gave 0.97, 0.55, nd, 0.46, 0.62, 0.72 (controls 0 of 18).
The variant GFTLNSYGIS, VIYSDGRRTFYGDSVK, GSEAGTFDL gave -0.08, 0.08, 0.57, 0.26, 0.06, 0.70 (controls 0 of 18).
The variant GFNLNSYGIS, VIYSDGRRTFYGDMVK, GKQAGTFDS gave nd, 1.53, 2.10, 1.90, 1.53, 1.78 (controls 0 of 18).
The variant GFNLNSYGIS, VIYSDGRRTFYGDSVK, GREAGTFDK gave 0.35, 0.17, 0.12, -0.02, 0.58, 0.74 (controls 0 of 18).
The variant GFGLNSYGIS, VIYSDGRRTFYGDSVK, GSEAGTFDT gave -0.03, 0.33, -0.02, 0.03, -0.28, 0.01 (controls 0 of 18).
The variant GFELNEYGIS, VIYSDGRRTFYADSVK, GKAAGTFDK gave 0.35, 0.30, 0.54, 0.27, 0.48, 0.21 (controls 1 of 18).
The variant GFELNSYGIS, VIYSDGKRTFYADDVK, GRQAGTFDS gave 0.87, 1.52, 1.81, 1.37, 1.66, 2.34 (controls 0 of 18).
The variant GFSLNDYGIS, VIYSDGRRTFYDDMVK, GRTAGTFDS gave 1.73, 0.29, 0.49, 0.21, 0.75, 0.69 (controls 0 of 18).
The variant GFDLNSYGIS, VIYSDGRRTFYGDGVK, GREAGTFDT gave -0.09, -0.32, -0.40, -0.61, -0.42, -0.34 (controls 0 of 18).
The variant GFSLNSYGIS, VIYSDGRRTFYGDSVK, GSTAGTFDW gave nd, nd, nd, nd, nd, nd (controls 0 of 18).
The variant GFELNTYGIS, VIYSDGRRTFYGDNVK, GRTAGTFDS gave 0.78, 0.76, 0.49, 0.75, 0.28, 0.56 (controls 0 of 18).
The variant GFDLNSYGIS, VIYSDGRRTFYRDAVK, GKTAGTFDS gave nd, nd, nd, nd, nd, nd (controls 0 of 18).
The variant GFVLNSYGIS, VIYSDGRRTFYGDSVK, GEAAGTFDT gave 1.56, 1.02, 1.61, 1.09, 1.71, 1.59 (controls 0 of 18).
The variant GFELNEYGIS, VIYSDGRRTFMGDSVK, GRTAGTFDT gave 0.71, 0.14, 0.29, 0.19, 0.27, 0.31 (controls 0 of 18).
The variant YFNLNSYGIS, VIYSDGRRTFYIDSVK, GEAAGTFDS gave nd, nd, nd, nd, 3.33, nd (controls 0 of 18).
The variant GFSLNKYGIS, VIYSDGKRTFYGDSVK, GRQAGTFDS gave 1.45, 1.12, 0.67, 0.99, 0.57, 1.25 (controls 0 of 18).
The variant GFWLNEYGIS, VIYSDGRRTFYIDSVK, GKAAGTFDT gave 0.71, 1.67, 0.59, nd, 0.17, nd (controls 1 of 18).
The variant GFELNSYGIS, VIYSDGRRTFYGDSVK, GRLAGTFDK gave 2.68, 0.73, 0.69, 1.90, nd, nd (controls 0 of 18).
The variant GFNLNSYGIS, VIYSDGRRTFYKDDVK, GNAAGTFDS gave 1.21, 0.48, 0.62, 0.74, 0.56, 0.58 (controls 2 of 18).
The variant GFDLNSYGIS, VIYSDGRRTFYGDDVK, GKTAGTFDA gave 0.09, -0.08, -0.01, -0.15, -0.35, -0.19 (controls 0 of 18).
The variant GFQLNSYGIS, VIYSDGRRTFYGDNVK, GRQAGTFDT gave nd, nd, 1.59, nd, nd, nd (controls 0 of 18).
The variant MFDLNSYGIS, VIYSDGRRTFYGDSVK, GQEAGTFDT gave 0.93, 1.50, 1.52, 0.74, 1.18, 1.02 (controls 0 of 18).
The variant GFDLNSYGIS, VIYSDGRRTFYGDSVK, GMQAGTFDA gave 2.14, 0.94, 1.12, 0.13, 0.72, 0.99 (controls 0 of 18).
The variant GFELNSYGIS, VIYSDGRRTFYGDSVK, GRMAGSFDT gave nd, nd, nd, nd, nd, nd (controls 0 of 18).
The variant GFTLNSYGIS, VIYADGRRTFYGDNVK, GEAAGTFDK gave 0.12, 0.31, -0.51, -0.25, -0.51, -0.28 (controls 0 of 18).
The variant GFQLNNYGIS, VIYSDGRRTFYSDQVK, GQAAGTFDS gave 1.86, 0.57, 1.03, 0.43, 0.73, 0.70 (controls 0 of 18).

Extract of 8 entries:

CDR-H1,CDR-H2,CDR-H3,log10 Kd (nM) by replicate,signal with controls
GFTLNSYGIS,VIYSDGKRTFYGDSVK,GLVAGTFDT,"0.97, 0.55, nd, 0.46, 0.62, 0.72",0/18
YFNLNSYGIS,VIYSDGRRTFYIDSVK,GEAAGTFDS,"nd, nd, nd, nd, 3.33, nd",0/18
YFSLNSYGIS,VIYSDGRRTAYGDSVK,GRTAGTFDS,"1.50, 1.72, 1.87, 0.68, 2.25, 1.43",0/18
KFTLNSYGIS,VIYSDGKRTFYSDSVK,GRQAGTFDS,"nd, 1.62, nd, 0.69, 1.30, 1.89",0/18
GFSLNDYGIS,VIYSDGRRTFYDDMVK,GRTAGTFDS,"1.73, 0.29, 0.49, 0.21, 0.75, 0.69",0/18
GFTLNSYGIS,VIYADGRRTFYGDNVK,GEAAGTFDK,"0.12, 0.31, -0.51, -0.25, -0.51, -0.28",0/18
GFVLNSYGIS,VIYSDGRRTFYGDSVK,GEAAGTFDT,"1.56, 1.02, 1.61, 1.09, 1.71, 1.59",0/18
GFNLNSYGIS,VIYSDGRRTFYGDSVK,GREAGTFDK,"0.35, 0.17, 0.12, -0.02, 0.58, 0.74",0/18

The parent sequence was in this pool as ten entries: three were never detected, three once, and four in most replicates, with averages from 0.34 to 2.37. The authors averaged sequences with at least three values out of six and counted those with two or fewer as poor binders. Background: pairings of all heavy chain designs with three empty control strains gave a value in 1% of cases (median 2.08, 5th percentile 0.84). Values in that range, when seen in few replicates, are hard to tell from nonspecific mating. Also given: how often the same scFv was detected with the empty control strains.